{"source": "paper PMC12474298", "about": "(Viruses, 2025)", "key": {"IMPα1 (human IMPα1ΔIBB)": {"target": "IMPα1 (human IMPα1ΔIBB) (Homo sapiens, UniProt P52292)", "assay": "Fluorescence polarization assay, FITC-NLS peptide vs importin α1ΔIBB"}, "IMPα3 (human IMPα3ΔIBB)": {"target": "T1, IMPα3 (human IMPα3ΔIBB) (Homo sapiens, UniProt O00629)", "T1 sequence (O00629 64-521 limits assumed)": "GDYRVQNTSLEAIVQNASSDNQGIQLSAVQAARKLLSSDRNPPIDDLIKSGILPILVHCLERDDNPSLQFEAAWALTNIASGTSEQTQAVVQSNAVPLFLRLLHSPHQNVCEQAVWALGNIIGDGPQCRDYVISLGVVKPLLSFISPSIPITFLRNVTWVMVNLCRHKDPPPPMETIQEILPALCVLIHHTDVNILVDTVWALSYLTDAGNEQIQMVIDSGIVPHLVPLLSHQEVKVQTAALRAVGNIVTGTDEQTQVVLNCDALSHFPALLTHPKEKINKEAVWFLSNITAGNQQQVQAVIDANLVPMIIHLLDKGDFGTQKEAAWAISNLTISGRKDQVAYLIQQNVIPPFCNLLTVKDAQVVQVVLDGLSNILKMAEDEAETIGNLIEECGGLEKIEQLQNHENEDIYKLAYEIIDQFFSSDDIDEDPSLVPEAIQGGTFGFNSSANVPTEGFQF", "assay": "Fluorescence polarization assay, FITC-NLS peptide vs importin α3ΔIBB"}, "IMPα2 (mouse IMPα2ΔIBB)": {"target": "IMPα2 (mouse IMPα2ΔIBB) (Mus musculus, UniProt P52293)", "assay": "Fluorescence polarization assay, FITC-NLS peptide vs importin α2ΔIBB"}}, "data": [{"compound": "CC[C@H](C)[C@H](NC(=O)[C@H](CCCNC(=N)N)NC(=O)[C@H](CCCNC(=N)N)NC(=O)[C@H](C)NC(=O)[C@H](CCCCN)NC(=O)[C@H](CCCCN)NC(=O)[C@@H](NC(=O)[C@H](CCC(=O)O)NC(=O)CCCCCNC(=S)Nc1ccc2c(c1)C(=O)OC21c2ccc(O)cc2Oc2cc(O)ccc21)[C@@H](C)O)C(=O)N[C@@H](CC(C)C)C(=O)N[C@@H](CCC(=O)O)C(N)=O", "note": "[R1495A]", "values": [{"measurement": "Change in dissociation constant (KD) on mutation, IMPα1", "setting": "IMPα1 (human IMPα1ΔIBB)", "value": "significant increase in the dissociation constant (KD)"}, {"measurement": "Change in dissociation constant (KD) on mutation, IMPα3", "setting": "IMPα3 (human IMPα3ΔIBB)", "value": "significant increase in the dissociation constant (KD)"}, {"measurement": "Change in dissociation constant (KD) on mutation, IMPα2", "setting": "IMPα2 (mouse IMPα2ΔIBB)", "value": "significant increase in the dissociation constant (KD)"}]}]}
